Sfp PPTase inh: Sfp phosphopantetheinyl transferase inhibition; Q9F4F7; Biochemical Sfp PPTase activity, qHTS; Potency, µM, for the others: max response, negative = inhibition, most hits filed as inhibitors; 310,000 tested, 3.5% active; AID 1490; active = well fitted inhibition curve with a large enough effect; inconclusive = small, poorly fitted or top-dose-only effect, or another doubt; inactive = no such curve, though single readings can be large or run the other way;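 also: the enzyme is Sfp with the accession as filed and its product quenches rhodamine fluorescence; potency is read from the fitted curve at half-maximal effect; 0% = enzyme reaction without inhibitor and -100% = no enzyme wells; top concentration of the series not given in the record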
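Fluorescence-quenching assay: 15 nM Sfp-PPTase preincubated 15 min at room temperature with compound, then 5 uM rhodamine-CoA and 12.5 uM BHQ-2-labelled YbbR peptide added. Fluorescence (ex 525/em 598 nm) read at start and after 30 min; difference gives rate.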
ALDH1A1 inh: ALDH1A1 (human) enzyme inhibition | P00352 | Purified ALDH1A1, NADH fluorescence, propionaldehyde substrate | Potency, µM (highest dose often 75.3 µM), without a hit: at the top dose activity, negative = inhibition, actives largely listed as inhibitors | hit rate 7.3% among 220,000 | AID 1030; active means well fitted inhibition curve with a large enough effect, not every such curve was filed as active; inconclusive means small, poorly fitted or top-dose-only effect, or another doubt; inactive means no such curve, though single readings can be large or run the other way;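 further: potency means the concentration at half of the fitted maximal effect; plate controls were no enzyme wells and a reference inhibitor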
LMNA splice mod: modulators of lamin A splicing. AID 1487. HeLa LMNA splicing GFP/RFP minigene ratio, 48 h. hit rate 0.01% among 200,000. Potency, µM (doses to about 46.1 µM), for inactives: top-dose ratio change, negative = inhibition, hits mostly inhibitors; active means well fitted inhibition curve with a large enough effect in the signal ratio, with a control signal flat, not every such curve was filed as active; inconclusive means small, poorly fitted or top-dose-only effect, or effect the other way, or a change in a side signal; the % refers to the signal ratio; further: potency means the concentration at half of the fitted maximal effect; on the % scale 0 is the no-effect control and ±100 the full control effect
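Read-out is the ratio of GFP to DsRed2 object intensity, acquired by 488 nm laser-scanning cytometry on HeLa lamin A-EGFP minigene reporter cells. Compound incubation 48 hrs at 37 °C in Opti-MEM with 2% FBS; DMSO 0.5% final.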
KDM4E inh: JMJD2E (human) inhibition | JMJD2E catalytic domain, FDH-coupled NADH fluorescence (FDH is formaldehyde dehydrogenase) | Potency, µM (titrated, usually from 57.1 µM), inactives show top-dose activity change, negative = inhibition, actives largely listed as inhibitors | hit rate 1.6% among 230,000; active means well fitted inhibition curve with a large enough effect, not every such curve was filed as active; inconclusive means small, poorly fitted or top-dose-only effect, or another doubt; inactive means no such curve, though single readings can be large or run the other way;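 further: potency means the concentration at half of the fitted maximal effect; 0% = wells with enzyme and -100% = buffer wells without enzyme; nearly all actives have a fitted effect of over 50% in size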
miR-21 reporter: raises the signal of a miR-21 reporter | HeLa miR-21 FLuc reporter, luciferase, 48 h | Potency, µM (highest dose often 38.3 µM), inactives show at the highest dose reporter change, positive = more light | 340,000 tested, under 10 active | AID 2288; active = well fitted rising curve with a large enough effect; inconclusive = small, poorly fitted or top-dose-only effect; inactive = no such curve, though single readings can be large or run the other way;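 note: % of control where 0% means no effect; miR-21 action dims this reporter so a rising signal means less miR-21 action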
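Luminescence from a firefly luciferase reporter carrying a miR-21 binding site downstream, stably expressed under a CMV promoter in HeLa cells that make miR-21 endogenously, reports miRNA modulation after 48 h compound exposure up to approximately 40uM final.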
G9a inh: blocks human histone lysine methyltransferase G9a; G9a H3K9 monomethylation, AlphaScreen, 2 h; Potency, µM (top dose mostly 102 µM), without a hit: top-dose activity, negative = inhibition, most hits filed as inhibitors; hit rate 8.8% among 350,000; AID 504332; further: potency means the concentration at half of the fitted maximal effect; on the % scale 0 is the no-effect control and ±100 the full control effect; nearly all actives have a fitted effect of over 75% in size
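AlphaScreen detection with an anti-monomethyl H3K9 antibody quantified product after a 2 h room-temperature reaction containing 500 nM biotinylated H3K9 peptide, 20 µM SAM and 20 nM enzyme, which had been preincubated 15 min with compound.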
* hit, by the source's call; [ ] = dose if it differs, or a comment. Compounds with a hit are over-represented: about 13% of the library has one in this group of screens. Unless noted, the call rests on the fitted dose curve; in most records, active means well fitted curve in the direction sought with a large enough effect; inconclusive means small, poorly fitted or top-dose-only effect, or another doubt; inactive means no such curve, though single readings can be large; an effect the other way counts as inactive or inconclusive.

Start of the data: the first 2 compounds (preview)
How did COc1cc(/C=C2/SC(=O)NC2=O)ccc1OCc1ccccc1 do in these assays?
Sfp PPTase inh: -6.1%; miR-21 reporter: -26.5%

Results for COc1cc(/C=C2/SC(=O)N(Cc3ccccc3Cl)C2=O)ccc1OCc1ccncc1 ?
Sfp PPTase inh: 3.0%; ALDH1A1 inh: 0.447µM*; LMNA splice mod: -1.7%[0.0737 µM]; KDM4E inh: 3.6%; miR-21 reporter: -5.3%; G9a inh: 32.5%[0.501 µM]

The whole of this part, from the start:
How did COc1cc(/C=C2/SC(=O)NC2=O)ccc1OCc1ccccc1 do in these assays?
Sfp PPTase inh: -6.1%; miR-21 reporter: -26.5%

Results for COc1cc(/C=C2/SC(=O)N(Cc3ccccc3Cl)C2=O)ccc1OCc1ccncc1 ?
Sfp PPTase inh: 3.0%; ALDH1A1 inh: 0.447µM*; LMNA splice mod: -1.7%[0.0737 µM]; KDM4E inh: 3.6%; miR-21 reporter: -5.3%; G9a inh: 32.5%[0.501 µM]

Results for CCOc1ccc(C(C(=O)NC(C)(C)C)N(CCOC)C(=O)CCC(=O)Nc2ccccn2)cc1 (stereo not drawn) ?
Sfp PPTase inh: 8.0%; miR-21 reporter: -0.1%; G9a inh: 17.7%

Results for CCOCCCNC(=S)N1CCN(CC)CC1 ?
Sfp PPTase inh: -2.1%; ALDH1A1 inh: -3.4%; LMNA splice mod: -5.7%[46 µM]; KDM4E inh: inconclusive; miR-21 reporter: 2.7%; G9a inh: 22.4µM*

Results for CCCNC(=O)N1CCN(Cc2ccco2)CC1 ?
Sfp PPTase inh: 6.8%; ALDH1A1 inh: -3.9%; LMNA splice mod: 9.4%[46 µM]; KDM4E inh: 7.5%; miR-21 reporter: -1.9%; G9a inh: -4.0%

Results for CCOCCCNC(=S)N1CCN(Cc2ccco2)CC1 ?
Sfp PPTase inh: inconclusive; ALDH1A1 inh: 14.1µM*; KDM4E inh: -21.6%; miR-21 reporter: -1.7%; G9a inh: 10µM*

What do the screens show for `CNC(=O)c1ccsc1NC(=O)c1coc2ccccc2c1=O`?
Sfp PPTase inh: 9.8%; ALDH1A1 inh: 6.5%; KDM4E inh: 2.7%; miR-21 reporter: -4.9%; G9a inh: 50.1µM*

What do the screens show for `Nc1nc(N)nc(COc2ccccc2)n1`?
Sfp PPTase inh: 13.1%; ALDH1A1 inh: 1.2%; KDM4E inh: -7.2%; miR-21 reporter: -55.4%; G9a inh: -0.6%

What do the screens show for `CN(C)c1ccc(NC(=O)CCN2C(=O)c3cccc([N+](=O)[O-])c3C2=O)cc1`?
Sfp PPTase inh: 8.0%; miR-21 reporter: -5.2%; G9a inh: 10µM*

How did O=C(CCN1C(=O)c2cccc([N+](=O)[O-])c2C1=O)Nc1nccs1 do in these assays?
Sfp PPTase inh: -16.4%; ALDH1A1 inh: inconclusive; LMNA splice mod: -8.8%[46 µM]; KDM4E inh: -8.4%; miR-21 reporter: 0.2%; G9a inh: 39.8µM*

Results for Cc1ccnc(NC(=O)CCC(=O)N(CC(=O)NC2CCCCC2)C2CCCC2)c1 ?
Sfp PPTase inh: 9.8%; KDM4E inh: -3.3%; miR-21 reporter: 0.6%; G9a inh: 13.1%

Results for CC(CNC(=O)c1cnn(-c2ccc(F)cc2)c1-n1cccc1)c1ccccc1 (stereo not drawn) ?
miR-21 reporter: 27.3%; G9a inh: 15.8%[59 µM]

Results for COc1ccccc1NC(=O)C(=O)NNC(=O)c1ccco1 ?
Sfp PPTase inh: -8.5%; ALDH1A1 inh: 2.9%; LMNA splice mod: -14.4%; KDM4E inh: -5.4%; miR-21 reporter: -6.6%; G9a inh: 8.91µM*

How did COc1ccccc1C(=O)NNC(=O)C(=O)NCc1ccccc1 do in these assays?
Sfp PPTase inh: 10.8%; ALDH1A1 inh: -2.0%; LMNA splice mod: inconclusive; KDM4E inh: 9.9%; miR-21 reporter: 0.7%; G9a inh: 28.2µM*

How did COc1ccccc1NC(=O)c1ccc(NC(=O)c2ccco2)cc1 do in these assays?
Sfp PPTase inh: 0.6%; miR-21 reporter: -12.3%; G9a inh: inconclusive

What do the screens show for `COc1ccccc1NC(=O)c1ccccc1NC(=O)c1cc(Cl)ccc1NC(=O)c1ccco1`?
Sfp PPTase inh: 15.8µM*; ALDH1A1 inh: 206.5%; LMNA splice mod: inconclusive; KDM4E inh: inconclusive; miR-21 reporter: -5.0%; G9a inh: 0.2%[59 µM]

Results for CC1(C)CCC[C@@]2(C)CC=C(C(=O)O)[C@@H]3C[C@]312 ?
G9a inh: 3.3%[12.7 µM]

How did Nc1ncnc2c([C@@H]3O[C@@H](CO)[C@H](O)[C@@H]3O)nsc12 do in these assays?
ALDH1A1 inh: -12.5%[13.5 µM]

What do the screens show for `O=S(=O)(NCCN1CCOCC1)c1cc(Cl)ccc1Cl`?
Sfp PPTase inh: 13.9%; miR-21 reporter: -0.9%; G9a inh: 9.5%

How did O=S(=O)(Nc1ccc(N2CCOCC2)cc1)c1cc(Cl)ccc1Cl do in these assays?
Sfp PPTase inh: 3.0%; miR-21 reporter: -12.1%; G9a inh: 44.7µM*

What do the screens show for `CCN(c1ccc(NS(=O)(=O)c2cc(Cl)ccc2Cl)cc1)C(C)C`?
Sfp PPTase inh: -16.5%; ALDH1A1 inh: inconclusive; LMNA splice mod: inconclusive; KDM4E inh: -12.5%; miR-21 reporter: 14.6%; G9a inh: 7.08µM*

How did CN(C)c1ccc(NS(=O)(=O)c2cc(Cl)ccc2Cl)cc1 do in these assays?
Sfp PPTase inh: -3.5%; ALDH1A1 inh: inconclusive; LMNA splice mod: -10.8%; KDM4E inh: -6.9%; miR-21 reporter: -2.8%; G9a inh: 8.91µM*

What do the screens show for `O=C(COC(=O)c1ccccc1O)Nc1cccc(S(=O)(=O)N2CCCC2)c1`?
G9a inh: 0.1%[59 µM]

How did CC(C)(C)c1ccc(N2C[C@@H](COc3ccc(C(=O)O)cc3)CC2=O)cc1 do in these assays?
Sfp PPTase inh: 23.2%

How did CCc1ccc(NC(=O)CNC(=O)[C@@H]2Cc3ccccc3CN2)cc1 do in these assays?
Sfp PPTase inh: -1.2%; miR-21 reporter: -3.8%; G9a inh: 79.4µM*

Results for O=C(CNC(=O)[C@@H]1Cc2ccccc2CN1)Nc1ccc2c(c1)OCCO2 ?
Sfp PPTase inh: -0.6%; miR-21 reporter: -26.4%; G9a inh: 39.8µM*

What do the screens show for `CCn1cc(C(=O)NCc2ccc(Cl)cc2)c(=O)c2cc(S(=O)(=O)N(C)C3CCCCC3)ccc21`?
miR-21 reporter: 3.7%; G9a inh: -9.0%[59 µM]

How did FC(F)(F)c1ccncc1-c1nnnn1-c1ccc(Cl)cc1 do in these assays?
Sfp PPTase inh: -3.8%; KDM4E inh: -2.3%; miR-21 reporter: 12.8%

How did Cc1cccc(-n2nnnc2-c2cnccc2C(F)(F)F)c1C do in these assays?
Sfp PPTase inh: -24.1%; ALDH1A1 inh: 15.8µM*; KDM4E inh: -7.4%; miR-21 reporter: 7.9%; G9a inh: inconclusive

How did COc1ccc(NC(=O)CSc2nccn2Cc2ccc(F)cc2)cc1 do in these assays?
Sfp PPTase inh: 6.2%; miR-21 reporter: -6.4%

Results for CC1CCCC(C)N1S(=O)(=O)c1ccc(NC(=O)CNC2CCCC2)cc1 (stereo not drawn) ?
Sfp PPTase inh: -1.0%; miR-21 reporter: -4.2%; G9a inh: 44.7µM*

How did CC(=O)Nc1ccc(S(=O)(=O)N2C(C)CCCC2C)cc1 (stereo not drawn) do in these assays?
Sfp PPTase inh: 8.2%; miR-21 reporter: -4.7%; G9a inh: 56.2µM*

Results for CS(=O)(=O)c1ccccc1C(=O)Nc1cc2c(cc1C(=O)O)OCCCO2 ?
Sfp PPTase inh: 18.5%; miR-21 reporter: -1.2%; G9a inh: 50.1µM*
